# Columns and labels:
# [1] = tested on: M + His6_Chx^197_SAAG_G3SG3SG3S_hGH
substance,measurement,setting,value
"furin (furin protease, purified enzyme added in vitro)","cleavage by furin followed by mass spectrometry (0, 5, 24 h at 30 C)",[1],"After 5 hrs and 24 hrs, the Chx^197_SAAG-N3-HGH construct was cleaved by furin"
same,cleavage by furin followed by mass spectrometry and ion chromatogram,Exenatide,exenatide incubated with furin remained intact

# — patent US20250099599
